Test results reported in ChEMBL document CHEMBL5257037, “Side Chain Cyclized Aromatic Amino Acids: Great Tools as Local Constraints in Peptide and Peptidomimetic Design” (J Med Chem, 2016).

Test: Inhibition of farnesyltransferase (unknown origin)
Set-up: species or system Homo sapiens

CSCC[C@H](NC(=O)[C@@H]1CCCN1C(=O)[C@@H](NC(=O)[C@@H](N)CS)C(C)C)C(=O)O
IC50: 120 nM
